{"source": "paper PMC11847841", "about": "“The development and evaluation of a tublysine-based antibody-drug conjugate with enhanced tumor therapeutic efficacy” (Frontiers in Pharmacology, 2025)", "key": {"[1]": {"assay": "Acute toxicity study in ICR mice", "type": "in vivo", "method": "The study was terminated after 12 days of dosing. Body weights were monitored daily. The serum enzyme activities of AST and ALT were measured on day 5 and 12 after dosing. Half of the mice in each group (n = 5) were euthanized on day 5 and 12. The hearts, livers, spleens, lungs, kidneys and brains were collected and weighed. Pathological examinations using hematoxylin and eosin (HE) staining were conducted on selected organs and tissues, particularly those showing significant weight changes or macroscopic abnormalities, such as the livers."}, "[2]": {"conditions": "cited from earlier work"}, "[3]": {"conditions": "Kadcyla 60 mg/kg single dose, rat; ref Poon et al., 2013; cited from earlier work"}}}
{"substance": "ado-trastuzumab emtansine [Kadcyla]", "values": [{"measurement": "Maximal body weight reduction", "setting": "[1]; 75 mg/kg single i.v. (Kadcyla: day 4)", "result": "−9.3", "unit": "%"}, {"measurement": "Hepatic pathological findings (H&E)", "setting": "[1]; 75 mg/kg, day 5", "result": "swelling of hepatocytes"}, {"measurement": "Increase of liver/brain weights", "setting": "[1]; 75 mg/kg, day 5", "result": 22.6, "unit": "%"}, {"measurement": "Increase of serum ALT activity", "setting": "[1]; 75 mg/kg, day 5", "result": 4.6, "unit": "fold"}, {"measurement": "Increase of serum AST activity", "setting": "[1]; 75 mg/kg, day 5", "result": 8.8, "unit": "fold"}, {"measurement": "Hepatic pathological findings (H&E)", "setting": "[1]; 75 mg/kg, day 12", "result": "mildly swollen hepatocytes, vacuolization around the nucleus, and numerous inflammatory cells surrounding the bile tubules and portal venules"}, {"measurement": "Increase of liver/brain weights", "setting": "[1]; 75 mg/kg, day 12", "result": 35.7, "unit": "%"}, {"measurement": "Increase of serum ALT activity", "setting": "[1]; 75 mg/kg, day 12", "result": 9.4, "unit": "fold"}, {"measurement": "Increase of serum AST activity", "setting": "[1]; 75 mg/kg, day 12", "result": 3.1, "unit": "fold"}, {"measurement": "Maximal body weight reduction", "setting": "[1]; 150 mg/kg single i.v. (Kadcyla: day 5)", "result": "−14.3", "unit": "%"}, {"measurement": "Hepatic pathological findings (H&E)", "setting": "[1]; 150 mg/kg, day 5", "result": "focal necrosis, vacuolar degeneration of hepatocytes, and infiltration of inflammatory cells"}, {"measurement": "Increase of liver/brain weights", "setting": "[1]; 150 mg/kg, day 5", "result": 0, "unit": "%"}, {"measurement": "Increase of serum ALT activity", "setting": "[1]; 150 mg/kg, day 5", "result": 5.8, "unit": "fold"}, {"measurement": "Increase of serum AST activity", "setting": "[1]; 150 mg/kg, day 5", "result": 20.8, "unit": "fold"}, {"measurement": "Hepatic pathological findings (H&E)", "setting": "[1]; 150 mg/kg, day 12", "result": "focal necrosis with infiltration of many inflammatory cells, vacuolar degeneration of hepatocytes, and Kupffer’s cell hypertrophy"}, {"measurement": "Increase of liver/brain weights", "setting": "[1]; 150 mg/kg, day 12", "result": 96.4, "unit": "%"}, {"measurement": "Increase of serum ALT activity", "setting": "[1]; 150 mg/kg, day 12", "result": 14.3, "unit": "fold"}, {"measurement": "Increase of serum AST activity", "setting": "[1]; 150 mg/kg, day 12", "result": 5.5, "unit": "fold"}, {"measurement": "Survival at the end of the study period", "setting": "[1]; single i.v. 75 or 150 mg/kg, 12 days", "result": "All the test animals survived"}, {"measurement": "Maximum tolerated dose (MTD)", "setting": "[2]; every 3 weeks (Q3W), ref Krop et al., 2010, Lambert and Chari, 2014, de Goeij and Lambert, 2016", "result": 3.6, "unit": "mg/kg"}, {"measurement": "ILD/pneumonitis incidence", "setting": "[2]; ref Montemurro et al., 2019", "result": "approximately 1%"}, {"measurement": "Outcome of single-dose regimen", "setting": "[3]", "result": "animal death"}]}
